Paper PMC7834738 (Molecular Therapy, 2020)

System: SARS-CoV-2 (USA_WA1/2020)
Format: cell-based

CC(=O)Oc1ccccc1C(=O)Nc1ncc([N+](=O)[O-])s1 [Nitazoxanide]
concentration at which synergy with remdesivir was observed: > 1.25 μM and > 0.383 mg/L

Several values for one entry are separate records, joined by “and”; a condition that tells them apart may be missing. Identical values can stand only once.
